Legend:
[1] = tested on: isolated rat mitochondria; assay: t-BuOOH-induced oxidative stress model, MDA production; settings: self-administered t-BuOOH (75 µmol), compared to controls (untreated mitochondria)
[2] = tested on: isolated rat mitochondria; assay: t-BuOOH-induced oxidative stress model, GSH level; settings: self-administered t-BuOOH (75 µmol), compared to controls (untreated mitochondria)

Q: How did the “increase of MDA production by the toxic agent” value [1] turn out when `CC(C)(C)OO` was run?
A: Its value is 55%.

Q: And the “decrease of GSH by the toxic agent” value [2]?
A: The value was 52%.

— PMC9414684, “Quantitative Structure–Neurotoxicity Assessment and In Vitro Evaluation of Neuroprotective and MAO-B Inhibitory Activities of Series N′-substituted 3-(1,3,7-trimethyl-xanthin-8-ylthio)propanehydrazides” (Molecules, 2022)
